# “Also recorded” adds a separate entry of the source.
# Target: T1, IGF-1R (Homo sapiens, UniProt P08069)
# T1 construct: 30-minute treatment of cultured AoSMCs; endogenous in cells; host or cells: human aortic smooth muscle cells (AoSMCs), second passage
# Experiment: Immunoprecipitation and anti-phospho-Tyr blotting of IGF-1R
# Format: cell-based
# Conditions: 30 minutes, 0.5 to 10 nmol/L insulin or 10 nmol/L IGF-1, AoSMCs
# Description: At the end of all treatments, cells from quadruplicate cultures in each experimental group were lysed using NP40 cell lysis buffer (Invitrogen Corp.). Thirty micrograms of protein extracts from each sample was suspended in standard sample buffer, resolved on 4% to 12% gradient SDS-PAGE gels, transferred to nitrocellulose membranes, and subjected to Western blotting using antibodies.
# At the end of indicated treatments, the cultured cells were lysed as described, and 300 μL aliquots of cell extracts containing […] were incubated at 4° C. for 3 hours with the aliquots of protein G bound DYNABEADS® (Invitrogen Corp.) that were conjugated with either rabbit polyclonal anti-tropoelastin, goat polyclonal anti-Glut10, or rabbit polyclonal anti-S-Gal antibodies. The beads carrying the final immunoprecipitation products were then washed with PBS, resuspended in sample buffer, and boiled for 5 minutes. The released proteins were then resolved on SDS-PAGE gel and subjected to Western blotting using indicated antibodies.
substance,measurement,value
IGF-1,phosphorylation of IGF-1R,phosphorylated only in cultures treated with IGF-1; also recorded: could only be induced
